# Data taken from US9586931B2 (Merck Sharp & Dohme Corp., priority 2012, dated 2017).
# Read-outs that look alike come from different tables or passages of the source.
# Biological target: recombinant human GST-Syk (Homo sapiens, UniProt P43405)
# Experiment: Homogeneous Time-Resolved Fluorescence (HTRF) assay for the recombinant human Syk enzyme
# Details: read-out: rhSYK Activity IC50, recombinant human GST-Syk 5 pM, ATP 25 μM, 10-dose titration 10 μM to 0.508 nM
SMILES,IC50 (tested form: formic acid salt),IC50
CCc1ccnc(Nc2cc(C)cc(-c3cn(C(C)c4ccc(C(=O)O)cc4)nn3)c2)c1 (centres unmarked),11.2 nM,–
"Cc1cc(Nc2nccc(C(F)F)n2)cc(-c2cn(C3CCCC(O)C3(C)O)nn2)c1 (single isomer, unassigned) [29.4]",–,6.6 nM
"Cc1cc(Nc2nccc(C(F)F)n2)cc(-c2cn(C3CCCC(O)C3(C)O)nn2)c1 (single isomer, unassigned) [29.5]",–,22.6 nM
"Cc1cc(Nc2nccc(C(F)F)n2)cc(-c2cn(C3CCCC(O)C3(C)O)nn2)c1 (single isomer, unassigned) [29.6]",–,10.3 nM
"Cc1cc(Nc2nccc(C(F)F)n2)cc(-c2cn(C3CCCC(O)C3(C)O)nn2)c1 (single isomer, unassigned) [29.7]",–,11.6 nM
